Chains of the proteins cited; added tags and fusions are not shown. Lines headed by an entry give the natural chain unless they say otherwise; changes in a name come on top.
UniProt P11802: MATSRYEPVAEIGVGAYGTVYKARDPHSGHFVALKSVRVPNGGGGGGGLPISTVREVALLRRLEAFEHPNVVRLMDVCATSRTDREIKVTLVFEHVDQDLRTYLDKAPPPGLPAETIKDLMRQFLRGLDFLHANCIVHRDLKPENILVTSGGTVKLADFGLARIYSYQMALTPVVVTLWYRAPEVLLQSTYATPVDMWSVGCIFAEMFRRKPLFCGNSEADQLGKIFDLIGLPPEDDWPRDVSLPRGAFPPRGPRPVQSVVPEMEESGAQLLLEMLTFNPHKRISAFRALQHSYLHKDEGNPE

The experiment has as its target CDK4/CycD1 (Homo sapiens, UniProt P11802). Briefly: Kinase activity assay (MSA, EZ Reader) against CDK4.
`CN1CCn2c1nc1c(F)cc(-c3nc(N[C@@H]4CCOC[C@H]4O)ncc3Cl)cc12` [TB-45, (3S,4R)-4-((5-chloro-4-(8-fluoro-1-methyl-2,3-dihydro-1H-benzo[d]imidazo[1,2-a]imidazol-6-yl)pyrimidin-2-yl)amino)tetrahydro-2H-pyran-3-ol] displayed an IC50 of 9.44 nM.
Regarding `CN1CCCn2c1nc1c(F)cc(-c3nc(N[C@@H]4CCOC[C@H]4O)ncc3F)cc12` [TB-42, (3S,4R)-4-((5-fluoro-4-(9-fluoro-1-methyl-1,2,3,4-tetrahydrobenzo[4,5]imidazo[1,2-a]pyrimidin-7-yl)pyrimidin-2-yl)amino)tetrahydro-2H-pyran-3-ol], half-maximal inhibition (IC50) was put at 8.36 nM.
Then `CN1CCn2c1nc1c(F)cc(-c3nc(NC4CCN(S(C)(=O)=O)CC4)ncc3Cl)cc12` [TB-52, 5-chloro-4-(8-fluoro-1-methyl-2,3-dihydro-1H-benzo[d]imidazo[1,2-a]imidazol-6-yl)-N-(1-(methylsulfonyl)piperidin-4-yl)pyrimidin-2-amine], with 8.94 nM; and `CNS(=O)(=O)N1CCC(Nc2ncc(Cl)c(-c3cc(F)c4nc5n(c4c3)CCCN5C)n2)CC1` [TB-144, 4-((5-chloro-4-(9-fluoro-1-methyl-1,2,3,4-tetrahydrobenzo[4,5]imidazo[1,2-a]pyrimidin-7-yl)pyrimidin-2-yl)amino)-N-methylpiperidine-1-sulfonamide], with 13.6 nM; and `COCc1cc(Nc2ncc(Cl)c(-c3cc(F)c4nc5n(c4c3)CCCN5C)n2)ccn1` [TB-130, 5-chloro-4-(9-fluoro-1-methyl-1,2,3,4-tetrahydrobenzo[4,5]imidazo[1,2-a]pyrimidin-7-yl)-N-(2-(methoxymethyl)pyridin-4-yl)pyrimidin-2-amine], with 28.6 nM.
`CC1CCN(C)c2nc3c(F)cc(-c4nc(N[C@@H]5CCOC[C@H]5O)ncc4Cl)cc3n21` (mixture of isomers) [TB-44, (3S,4R)-4-((5-chloro-4-(9-fluoro-1,4-dimethyl-1,2,3,4-tetrahydrobenzo[4,5]imidazo[1,2-a]pyrimidin-7-yl)pyrimidin-2-yl)amino)tetrahydro-2H-pyran-3-ol]: the half-inhibitory concentration (IC50) amounted to 2.93 nM.
Then `CN1C(=O)CCn2c1nc1c(F)cc(-c3nc(N[C@@H]4CCOC[C@H]4O)ncc3Cl)cc12` [TB-46, 7-(5-chloro-2-(((3S,4R)-3-hydroxytetra hydro-2H-pyran-4-yl)amino)pyrimidin-4-yl)-9-fluoro-1-methyl-3,4-dihydrobenzo[4,5]imidazo[1,2-a]pyrimidin-2(1H)-one], with 15.3 nM.
Compound `CN1CCCn2c1nc1c(F)cc(-c3nc(N[C@@H]4CCOC[C@H]4O)ncc3Cl)cc12` [TB-40] returned an IC50 of 7.94 nM.
Then `COC(=O)N1CCC(Nc2ncc(Cl)c(-c3cc(F)c4nc5n(c4c3)CCCN5C)n2)CC1` [TB-93, methyl 4-((5-chloro-4-(9-fluoro-1-methyl-1,2,3,4-tetrahydrobenzo[4,5]imidazo[1,2-a]pyrimidin-7-yl)pyrimidin-2-yl)amino)piperidine-1-carboxylate], with 51.8 nM.
Then `CN1CCCn2c1nc1c(F)cc(-c3nc(Nc4ccncc4)ncc3Cl)cc12` [TB-90], with 12.7 nM.
Then `CCS(=O)(=O)N1CCC(Nc2ncc(Cl)c(-c3cc(F)c4nc5n(c4c3)CCCN5C)n2)CC1` [TB-143, 5-chloro-N-(1-(ethylsulfonyl)piperidin-4-yl)-4-(9-fluoro-1-methyl-1,2,3,4-tetrahydrobenzo[4,5]imidazo[1,2-a]pyrimidin-7-yl)pyrimidin-2-amine], with 7.9 nM; and `CN1CCCn2c1nc1c(F)cc(-c3nc(N[C@@H]4CCOC[C@H]4O)ncc3C(F)(F)F)cc12` [TB-41, (3S,4R)-4-((4-(9-fluoro-1-methyl-1,2,3,4-tetrahydrobenzo[4,5]imidazo[1,2-a]pyrimidin-7-yl)-5-(trifluoromethyl)pyrimidin-2-yl)amino)tetrahydro-2H-pyran-3-ol], with 161 nM; and `C[C@H]1CCN(C)c2nc3c(F)cc(-c4nc(N[C@@H]5CCOC[C@H]5O)ncc4Cl)cc3n21` [TB-92, (3S,4R)-4-((5-chloro-4-((S)-9-fluoro-1,4-dimethyl-1,2,3,4-tetrahydrobenzo[4,5]imidazo[1,2-a]pyrimidin-7-yl)pyrimidin-2-yl)amino)tetrahydro-2H-pyran-3-ol], with 4.55 nM.
In turn, `C[C@@H]1CCN(C)c2nc3c(F)cc(-c4nc(N[C@@H]5CCOC[C@H]5O)ncc4Cl)cc3n21` [TB-91, (3S,4R)-4-((5-chloro-4-((R)-9-fluoro-1,4-dimethyl-1,2,3,4-tetrahydrobenzo[4,5]imidazo[1,2-a]pyrimidin-7-yl)pyrimidin-2-yl)amino)tetrahydro-2H-pyran-3-ol] yielded an IC50 of 4.15 nM.
`CN1CCCn2c1nc1c(F)cc(-c3nc(NC4CCOCC4)ncc3Cl)cc12` [TB-132, 5-chloro-4-(9-fluoro-1-methyl-1,2,3,4-tetrahydrobenzo[4,5]imidazo[1,2-a]pyrimidin-7-yl)-N-(tetrahydro-2H-pyran-4-yl)pyrimidin-2-amine] came in with an IC50 of 46.8 nM.
As to `CN1CCCn2c1nc1c(F)cc(-c3nc(NC4CCC(F)(F)CC4)ncc3Cl)cc12` [TB-95, 5-chloro-N-(4,4-difluorocyclohexyl)-4-(9-fluoro-1-methyl-1,2,3,4-tetrahydrobenzo[4,5]imidazo[1,2-a]pyrimidin-7-yl)pyrimidin-2-amine], half-maximal inhibition (IC50) required 103 nM.

Usually IC50 stands for the concentration at which inhibition is half-maximal.
